Source: PubChem BioAssay
Most compounds without a hit are left out; they make up all but 1.6% or so of the library.
CAL PDZ FP-1 – inhibitors of human CAL PDZ peptide binding | Q9HD26 | purified CAL PDZ, TMR-peptide fluorescence polarization, 1 h | inhibition, % at 20 µM | 0.02% of 330,000 active | AID 504414;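 active = highest replicate inhibition of at least 40%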;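 also: plate controls were DMSO neutral control wells for no effect and unlabeled competitor peptide control wells for full effect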
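Control set: unlabelled peptide and DMSO controls / Material: purified CerCALP PDZ construct / Timing: 1 h incubation at room temperature before polarization reading / Doses: 20 µM, one dose / Detection: fluorescence polarization (mP)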
PglD DTNB – inhibitors of Campylobacter jejuni PglD acetyltransferase | purified PglD enzyme, DTNB colorimetric CoA detection | inhibition, % at 12.5 µM | 0.098% of 360,000 active | AID 602405; in the data active = inhibition above about 16%, passing the limit was not always enough
UUG fidelity – alters start codon recognition fidelity in yeast. S. cerevisiae UUG-firefly luciferase reporter, luminescence/redox ratio. AID 602363. activity score, % at 18.7 µM. hit rate 0.13% among 350,000;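 active = replicate mean at a twofold rise or more, about +100% in these data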;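 note: firefly luciferase made from a UUG start codon reports start codon fidelity; reporter light over untreated wells divided by growth signal over untreated wells; some hits fall short of that in this replicate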
CAL PDZ FP-2 – blocks peptide binding to the human CAL PDZ domain | inhibition, % at 24.9 µM | purified CAL PDZ, TMR-peptide fluorescence polarization, 1 h | Q9HD26 | 0.92% of 300,000 active;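 active = mean inhibition of at least 30% with at least half of replicates also reaching 30%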;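 also: 0% = DMSO neutral control and 100% = excess unlabeled competitor peptide PRC23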
ARNT-TACC3 inh – ARNT/TACC3 interaction disruption. Q9Y6A5. AlphaScreen His-ARNT PAS-B/GST-TACC3 binding, luminescence; TACC3 fragment carries E629A point mutation. AID 623870. inhibition, % at 9.99 µM. 0.66% of 390,000 active;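 active = mean inhibition of replicates at least 50% and at least half of replicates each reaching 50%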;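 also: 0% = complete ARNT plus TACC3 wells and 100% = ARNT alone without TACC3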
Vif imaging – inhibitors of HIV Vif; inhibition, % at 7.49 µM; 0.35% of 340,000 active; HEK293T cells, Vif self-association by quenched fluorescence, imaging, 24 h; in the data active = inhibition above about 50%, passing the limit was not always enough
ARNT Alpha ctr – AlphaScreen artifact in ARNT/TACC3 counter-screen; shares compounds with ARNT-TACC3 inh; His-ARNT PASB-GST AlphaScreen artifact counter-screen, luminescence; AC50, µM (series often up to 68 µM), for the others: at the top dose activity change, negative = signal decrease; 50% of 1,200 active;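 active = every separate test run was called active for a drop in luminescence, with AC50 within twice the top valid dose, actives reach about 71 µM in these data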
Active calls of the source: *; [ ] = another dose, or the depositor's remark.

How did c1ccc(-c2nc3cc4ccccc4cc3[nH]2)nc1 do in these assays?
CAL PDZ FP-1: -3.1; PglD DTNB: 0.6; UUG fidelity: -71.8; CAL PDZ FP-2: -5.8; ARNT-TACC3 inh: 15.4*; Vif imaging: -10.0; ARNT Alpha ctr: -36.2%

Results for C[C@H]1CN([C@@H](C)CO)C(=O)c2cc(C#Cc3ccccc3F)cnc2O[C@H]1CN(C)C(=O)C1CC1 ?
PglD DTNB: -3.3; UUG fidelity: -3.5; ARNT-TACC3 inh: -10.2

What do the screens show for `Cc1ccc(C)c(NC(=O)CSc2n[nH]c(-c3ccccn3)n2)c1`?
CAL PDZ FP-1: -0.3; ARNT-TACC3 inh: 76.5*; Vif imaging: -2.8; ARNT Alpha ctr: 10.4µM*

Results for O=C(CSc1n[nH]c(-c2ccccn2)n1)Nc1cccc(Cl)c1 ?
CAL PDZ FP-1: -0.9; PglD DTNB: 1.5; UUG fidelity: -20.0; CAL PDZ FP-2: -6.4; ARNT-TACC3 inh: 55.5*; Vif imaging: -7.8; ARNT Alpha ctr: 13.6µM*

How did Cc1nc(SCC(=O)Nc2cccc(Cl)c2)n[nH]1 do in these assays?
CAL PDZ FP-1: 0.4; PglD DTNB: 0.2; UUG fidelity: -9.3; CAL PDZ FP-2: 0.9; ARNT-TACC3 inh: -10.4; Vif imaging: -21.7

How did O=C(C[C@H]1C=C[C@@H](NC(=O)C2CC2)[C@@H](CO)O1)Nc1nccs1 do in these assays?
PglD DTNB: 0.1; UUG fidelity: -13.8; ARNT-TACC3 inh: 33.9*; ARNT Alpha ctr: -3.3%[38 µM]

Results for C[C@H]1CN([C@@H](C)CO)C(=O)c2cccc(NS(=O)(=O)c3cn(C)cn3)c2O[C@H]1CN(C)C(=O)Nc1ccc(C(F)(F)F)cc1 ?
PglD DTNB: 1.9; UUG fidelity: 3.2; ARNT-TACC3 inh: -5.9

What do the screens show for `CCCOc1ccc(/C=N/Nc2cc(N3CCOCC3)ncn2)c(O)c1`?
CAL PDZ FP-1: 0.7; PglD DTNB: 10.9; UUG fidelity: -15.1; CAL PDZ FP-2: -4.6; ARNT-TACC3 inh: 58.2*; Vif imaging: 0.0; ARNT Alpha ctr: -26.7%

How did NNc1nc(-c2ccccc2)c2ccccc2n1 do in these assays?
CAL PDZ FP-1: -4.0; CAL PDZ FP-2: -2.1; ARNT-TACC3 inh: 24.9; Vif imaging: 7.2

What do the screens show for `NNc1nnc(-c2ccccc2)c(-c2ccccc2)n1`?
CAL PDZ FP-1: 0.2; PglD DTNB: -0.6; UUG fidelity: 27.5; CAL PDZ FP-2: -1.3; ARNT-TACC3 inh: 52.3*; Vif imaging: -5.2; ARNT Alpha ctr: 50.5µM*

Brought forward from above: 2 compounds; new compounds follow.
How did NNc1nc(-c2ccccc2)c2ccccc2n1 do in these assays?
CAL PDZ FP-1: -4.0; CAL PDZ FP-2: -2.1; ARNT-TACC3 inh: 24.9; Vif imaging: 7.2

What do the screens show for `NNc1nnc(-c2ccccc2)c(-c2ccccc2)n1`?
CAL PDZ FP-1: 0.2; PglD DTNB: -0.6; UUG fidelity: 27.5; CAL PDZ FP-2: -1.3; ARNT-TACC3 inh: 52.3*; Vif imaging: -5.2; ARNT Alpha ctr: 50.5µM*

What do the screens show for `CCCNC(=O)C[C@H]1CC[C@H]2[C@@H](COC[C@H](O)CN2C(=O)C2CCOCC2)O1`?
PglD DTNB: 1.6; UUG fidelity: -5.9; ARNT-TACC3 inh: 9.0

How did Cc1ccc(-c2cc(C(=O)NC3CCCC3)no2)cc1 do in these assays?
CAL PDZ FP-1: -1.0; PglD DTNB: 6.0; UUG fidelity: -15.4; ARNT-TACC3 inh: -7.3; Vif imaging: -5.5

How did O=C(NC1CCc2ccccc2C1)c1cc(-c2ccccc2)on1 (stereo not drawn) do in these assays?
ARNT Alpha ctr: -1.8%[38 µM]

What do the screens show for `O=C(NC1Cc2ccccc2C1)c1cc(-c2ccccc2)on1`?
ARNT Alpha ctr: 1.3%[38 µM]

How did O=C(NC1CCCCC1)c1cc(-c2ccc(F)cc2)on1 do in these assays?
CAL PDZ FP-1: -2.7; PglD DTNB: 0.5; UUG fidelity: -21.4; CAL PDZ FP-2: -0.8; ARNT-TACC3 inh: -4.3; Vif imaging: -4.3

How did C[C@H]1CN([C@@H](C)CO)C(=O)c2cc(C3=CCCCC3)cnc2O[C@@H]1CN(C)C(=O)Nc1ccc(F)cc1 do in these assays?
PglD DTNB: -1.9; UUG fidelity: 11.8; ARNT-TACC3 inh: -2.6

What do the screens show for `CN1[C@@H]2c3ccc(-c4cccc(F)c4)c(=O)n3C[C@@H]2[C@@H](CO)[C@@H]1C(=O)NC1CCCCC1`?
PglD DTNB: 1.9; UUG fidelity: 9.6; ARNT-TACC3 inh: -6.3

What do the screens show for `COc1ccc(C2c3c(nc[nH]c3=O)Oc3nc[nH]c(=O)c32)cc1`?
CAL PDZ FP-1: -0.8; PglD DTNB: 0.5; UUG fidelity: -1.5; CAL PDZ FP-2: -6.1; ARNT-TACC3 inh: 3.6; Vif imaging: -11.3

Results for O=c1[nH]cnc2c1C(c1ccccc1[N+](=O)[O-])c1c(nc[nH]c1=O)O2 ?
CAL PDZ FP-1: -0.9; PglD DTNB: -0.3; UUG fidelity: 5.2; CAL PDZ FP-2: -2.4; ARNT-TACC3 inh: 50.0*; Vif imaging: 6.5; ARNT Alpha ctr: -34.7%

Results for CO[C@H]1CN(C)C(=O)c2cc(NC(=O)Nc3ccccc3)ccc2OC[C@@H](C)N(C(=O)CC2CC2)C[C@H]1C ?
PglD DTNB: -0.5; ARNT-TACC3 inh: -1.1

Structures above containing a Cl atom, in the order listed:
Results for O=C(CSc1n[nH]c(-c2ccccn2)n1)Nc1cccc(Cl)c1 ?
CAL PDZ FP-1: -0.9; PglD DTNB: 1.5; UUG fidelity: -20.0; CAL PDZ FP-2: -6.4; ARNT-TACC3 inh: 55.5*; Vif imaging: -7.8; ARNT Alpha ctr: 13.6µM*

How did Cc1nc(SCC(=O)Nc2cccc(Cl)c2)n[nH]1 do in these assays?
CAL PDZ FP-1: 0.4; PglD DTNB: 0.2; UUG fidelity: -9.3; CAL PDZ FP-2: 0.9; ARNT-TACC3 inh: -10.4; Vif imaging: -21.7

Continued.
How did CC(=O)NC1=NC(=O)/C(=C/c2cn(C(C)=O)nc2-c2ccccc2)S1 do in these assays?
CAL PDZ FP-1: -4.1; CAL PDZ FP-2: 1.2; ARNT-TACC3 inh: 54.1*; Vif imaging: 3.4; ARNT Alpha ctr: -16.4%

What do the screens show for `O=C(O)CSc1cc(NS(=O)(=O)c2cccc([N+](=O)[O-])c2)c2ccccc2c1O`?
CAL PDZ FP-1: 27.8; PglD DTNB: 2.7; UUG fidelity: -25.4; CAL PDZ FP-2: 13.2; ARNT-TACC3 inh: 61.4*; Vif imaging: 13.6; ARNT Alpha ctr: -10.6%

What do the screens show for `CCOc1ccc(S(=O)(=O)Nc2cc(SCC(=O)O)c(O)c3ccccc23)cc1`?
CAL PDZ FP-1: 37.0; PglD DTNB: 7.1; UUG fidelity: -25.3; CAL PDZ FP-2: 5.5; Vif imaging: -2.6

How did C[C@@H]1CN([C@@H](C)CO)C(=O)Cc2cc(NC(=O)Nc3ccc(F)cc3)ccc2O[C@@H]1CN(C)Cc1ccc2c(c1)OCO2 do in these assays?
PglD DTNB: 2.0; UUG fidelity: -6.1; ARNT-TACC3 inh: 14.1

How did O=C(O)COc1ccccc1/C=N/NC(=O)c1cc(-c2ccc(Cl)cc2)nc2ccccc12 do in these assays?
CAL PDZ FP-1: -7.9; PglD DTNB: -0.9; UUG fidelity: 1.5; CAL PDZ FP-2: -2.7; ARNT-TACC3 inh: 41.5*; ARNT Alpha ctr: 56µM*

Results for O=C(O)COc1ccccc1/C=N/NC(=O)c1cc(-c2ccccc2)nc2ccccc12 ?
CAL PDZ FP-1: -2.8; PglD DTNB: 1.1; UUG fidelity: -9.9; CAL PDZ FP-2: -2.6; ARNT-TACC3 inh: 23.1

Results for C[C@@H]1CN([C@H](C)CO)C(=O)c2cc(NC(=O)CCC(F)(F)F)ccc2O[C@@H]1CN(C)S(=O)(=O)c1cccs1 ?
PglD DTNB: -1.1; UUG fidelity: -15.1; ARNT-TACC3 inh: 2.1

How did Cc1noc(C)c1S(=O)(=O)N(C)C[C@@H]1OCCCC[C@H](C)Oc2ccc(NC(=O)Nc3ccc(C(F)(F)F)cc3)cc2C(=O)N([C@H](C)CO)C[C@@H]1C do in these assays?
PglD DTNB: 0.1; UUG fidelity: -10.9; ARNT-TACC3 inh: 0.2
